In US20040092438A1, “Gd3-synthesis inhibitors for treating neuropathological disorders” (priority 1999, published 2004):

Tested on: focal cerebral ischemia
Conditions: single i.p. 100 mg/kg with piperonyl butoxide 400 mg/kg, 15 min after MCA occlusion; 24 h after 90-minute occlusion

For `CCCCCCCCCC(=O)N[C@H](CN1CCOCC1)[C@H](O)c1ccccc1` [D-PDMP, D-threo-1-phenyl-2-decanoylamino-3-morpholino-1-propanol], the “infarct volume (average ischemic lesion volume)” value was 6.01±2.10 mm^3.
